Molecules are shown by their SMILES. This is a selection; strong and weak results do not stand in their true shares. Some tests of the compounds listed are not included; inactive here does not mean inactive elsewhere. Activity calls are given as the source filed them.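 Rule for the calls: active = inhibition above the mean of the plate negative controls plus 5 SD (cut at about 13% in these data); inactive = the rest.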

This experiment can be described thus: blockers of IgG-bead uptake by macrophages – imaging, J774A.1 cells, IgG beads, primary screen (AID 1029).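 Note: phagocytic index as fraction of beads internalized from green versus red external bead signal; plate controls were DMSO negative control for no effect and cytochalasin-D positive control for full effect.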 To be noted: J774A.1 macrophage IgG-bead phagocytosis, at 5 µM, active compounds read high.
As usually defined, the inhibition is the change of the read-out against control, counted positive when it falls. Consider `CN(C)C1CCCC1OC(=O)C(O)(c1ccccc1)c1ccccc1` (stereo not drawn), for which the inhibition is inactive: -14%. In the case of `CCN1CCCC(OC(=O)C2(O)c3ccccc3C=Cc3ccccc32)C1` (stereo not drawn), the inhibition is inactive: -0.18%. In the case of `CN(C)c1cccc(C(=O)NCC2(N(C)C)CCCCC2)c1` it was inactive: -0.8%.

Values taken from PubChem BioAssay AID1029 (Sanford-Burnham Center for Chemical Genomics, 2008).
